Earlier results on one compound are cited in publication PMC9398548 (European journal of pharmaceutical sciences : official …, 2020).

Sequences of proteins named here, by UniProt entry; tags and fusion partners are left off. Residues count along the entry.
UniProt P56524, 655-1084 limits assumed: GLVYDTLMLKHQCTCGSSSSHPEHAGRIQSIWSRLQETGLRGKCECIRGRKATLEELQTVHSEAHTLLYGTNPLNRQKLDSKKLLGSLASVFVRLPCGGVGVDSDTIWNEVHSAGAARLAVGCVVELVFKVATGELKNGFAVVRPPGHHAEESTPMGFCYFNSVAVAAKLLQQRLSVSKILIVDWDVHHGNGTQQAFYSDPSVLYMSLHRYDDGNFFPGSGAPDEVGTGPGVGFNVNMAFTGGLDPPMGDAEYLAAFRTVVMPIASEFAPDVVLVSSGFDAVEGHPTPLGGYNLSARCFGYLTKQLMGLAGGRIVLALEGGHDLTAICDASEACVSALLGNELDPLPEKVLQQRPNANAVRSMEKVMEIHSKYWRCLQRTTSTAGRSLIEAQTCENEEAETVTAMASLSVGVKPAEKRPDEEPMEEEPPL

pIC50: −log10 of the molar value.

The data set addresses HDAC4 (Homo sapiens, UniProt P56524). The note with it: read-out: HDAC4 IC50; ref Kleinschek, A., et al. (2016); cited from earlier work.

Usually pIC50 stands for the negative decadic logarithm of the IC50, by convention in mol/L. As for `COc1ccc(Cn2ccc3ccc(C(=O)NO)cc32)cc1` [PCI-34051], the pIC50 was 5.00.
